## scFv variants of Ab-14 (light chain) against a SARS-CoV-2 spike peptide

Source: Engelhart et al. 2022 (doi:10.1038/s41597-022-01779-4), MIT Lincoln Laboratory and A-Alpha Bio; data file from the FLAb repository.

Target: peptide PDVDLGDISGINAS, taken from heptad repeat 2 (HR2) of SARS-CoV-2 spike.

Parent: Ab-14, a human scFv built as VH, the linker GGGGSGGGGSGGGGS, VL. Only the CDRs of the light chain vary.
VH: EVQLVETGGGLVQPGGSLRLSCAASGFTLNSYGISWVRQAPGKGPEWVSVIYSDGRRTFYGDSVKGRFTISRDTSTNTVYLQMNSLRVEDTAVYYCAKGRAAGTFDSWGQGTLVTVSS
VL: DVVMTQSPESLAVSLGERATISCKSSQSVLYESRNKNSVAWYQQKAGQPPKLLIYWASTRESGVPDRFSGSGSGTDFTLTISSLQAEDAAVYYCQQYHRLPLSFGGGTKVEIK

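The starting antibody came from a phage panning campaign against this peptide. Variants in AAYL50 differ from the parent at up to three CDR positions; double and triple changes were sampled at random. AlphaSeq pools MATa yeast showing the antibodies with MATalpha yeast showing the peptide. After mating in shaken culture at 30 °C for 16 h, diploids were selected and their barcode pairs sequenced. Scores were corrected for input abundance and mapped to Kd with protein pairs of known affinity run in the same pool. Mating was done three times.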

The whole VL of each variant is written out.
Affinities are written as log10 Kd with Kd in nM; a lower number is a better binder.
The mean shown is taken over the replicates in which the pair was detected.
An entry "n.d." has no value in the source: the pair was not observed among the diploids in that replicate. This suggests poor binding but is not conclusive.
Empty control strains, which show no peptide, gave a signal in 18% of pairings with library AAYL50; the median was 4.19 and 95% of these signals were weaker than 2.99. No background was subtracted. For each scFv, signals with the empty controls are counted beside the result, with their mean in brackets.

| VL | replicates, log10 nM | mean, log10 nM | control signals |
|---|---|---|---|
| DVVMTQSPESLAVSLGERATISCKSSQSVLYKSRMKNSVAWYQQKAGQPPKLLIYHASTRESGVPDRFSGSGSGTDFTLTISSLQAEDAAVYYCQQYHRLPLSFGGGTKVEIK | 2.06 1.76 2.05 | 1.96 | 6 of 9 (4.59) |
| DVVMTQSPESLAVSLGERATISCKSSQSLLHESRNKNSVAWYQQKAGQPPKLLIYWAWTRESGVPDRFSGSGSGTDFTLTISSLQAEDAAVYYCQQYHRLPLSFGGGTKVEIK | 1.08 1.07 1.41 | 1.19 | 1 of 9 (3.66) |
| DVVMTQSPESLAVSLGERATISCCSSQSVLYESRNKNSVAWYQQKAGQPPKLLIYWASTRESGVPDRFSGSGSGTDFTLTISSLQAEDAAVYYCQQYHRLPLSFGGGTKVEIK | 1.94 1.96 2.23 | 2.04 | 2 of 9 (4.97) |
| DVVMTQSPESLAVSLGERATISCKSGQSVLYESRNKNSVAWYQQKAGQPPKLLIYRASTRESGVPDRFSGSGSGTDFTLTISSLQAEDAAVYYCYQYHRLPLSFGGGTKVEIK | 0.28 0.78 0.55 | 0.54 | 4 of 9 (4.67) |
| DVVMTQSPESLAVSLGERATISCKSSQSVLYHSRNKNSVAWYQQKAGQPPKLLIYWAMTREVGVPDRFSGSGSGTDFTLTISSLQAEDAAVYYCQQYHRLPLSFGGGTKVEIK | 2.27 2.16 2.44 | 2.29 | 2 of 9 (3.88) |
| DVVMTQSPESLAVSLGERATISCKSSQSVLYEGRNKNSIAWYQQKAGQPPKLLIYWASTRESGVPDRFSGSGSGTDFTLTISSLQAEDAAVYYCQQYHRLPYSFGGGTKVEIK | n.d. n.d. n.d. | n.d. | 1 of 9 (3.03) |
| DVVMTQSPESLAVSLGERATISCQSSQSVLYERRNKNSVAWYQQKAGQPPKLLIYWASTTESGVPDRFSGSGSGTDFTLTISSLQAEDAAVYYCQQYHRLPLSFGGGTKVEIK | n.d. n.d. n.d. | n.d. | 1 of 9 (3.92) |
| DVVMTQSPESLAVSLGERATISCKSSQSVTYESRNKNSVAWYQQKAGQPPKLLIYWAHTRESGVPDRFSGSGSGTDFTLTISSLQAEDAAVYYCQQYHRLPLSFGGGTKVEIK | 0.95 1.24 1.31 | 1.17 | 1 of 9 (3.76) |
| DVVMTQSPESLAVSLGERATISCKSSGHVFYESRNKNSVAWYQQKAGQPPKLLIYWASTRESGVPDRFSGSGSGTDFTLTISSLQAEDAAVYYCQQYHRLPLSFGGGTKVEIK | n.d. n.d. n.d. | n.d. | 0 of 9 |
| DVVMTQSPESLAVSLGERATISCKSSQSVLVESRNRNSVAWYQQKAGQPPKLLIYWASTRFSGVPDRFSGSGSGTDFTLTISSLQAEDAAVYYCQQYHRLPLSFGGGTKVEIK | 0.88 0.91 0.92 | 0.90 | 4 of 9 (4.14) |
| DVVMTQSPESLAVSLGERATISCKSSASVWYESRNKNSVAWYQQKAGQPPKLLIYWASTRESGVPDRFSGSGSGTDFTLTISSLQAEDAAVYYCQQYHRLPLSFGGGTKVEIK | 1.61 1.73 1.88 | 1.74 | 2 of 9 (3.45) |
| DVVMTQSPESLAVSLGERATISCKSSQSVLYCSRNKNPVAWYQQKAGQPPKLLIYWMSTRESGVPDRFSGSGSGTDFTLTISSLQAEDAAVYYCQQYHRLPLSFGGGTKVEIK | n.d. n.d. n.d. | n.d. | 4 of 9 (4.16) |
| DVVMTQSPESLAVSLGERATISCKASQAVLIESRNKNSVAWYQQKAGQPPKLLIYWASTRESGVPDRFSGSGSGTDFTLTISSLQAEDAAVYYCQQYHRLPLSFGGGTKVEIK | n.d. 4.15 n.d. | 4.15 | 1 of 9 (4.26) |
| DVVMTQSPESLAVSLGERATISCKSSQSVLYTSREKNSVAWYQQKAGQPPKLLIYWASTREQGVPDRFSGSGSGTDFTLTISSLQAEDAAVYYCQQYHRLPLSFGGGTKVEIK | 0.67 0.90 0.88 | 0.82 | 5 of 9 (4.66) |
| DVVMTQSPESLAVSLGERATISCKSSESVLYGSRNKNSVAWYQQKAGQPPKLLIYWASTRFSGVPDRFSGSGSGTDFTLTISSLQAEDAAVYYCQQYHRLPLSFGGGTKVEIK | 0.83 1.02 0.94 | 0.93 | 6 of 9 (4.52) |
| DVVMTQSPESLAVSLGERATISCKSSCSVLYESRNKSSVAWYQQKAGQPPKLLIYWASTFESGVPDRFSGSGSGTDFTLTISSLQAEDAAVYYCQQYHRLPLSFGGGTKVEIK | n.d. 3.94 n.d. | 3.94 | 1 of 9 (4.50) |
| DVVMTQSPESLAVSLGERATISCKSSQSVLYESRNKNSVAWYQQKAGQPPKLLIYWASFRESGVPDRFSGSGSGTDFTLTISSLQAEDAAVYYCQQYHRLPLSFGGGTKVEIK | 1.07 1.13 1.28 | 1.16 | 3 of 9 (4.02) |

Picked from the list: the 2 lowest averages where every replicate gave a value.

| VL | replicates, log10 nM | mean, log10 nM | control signals |
|---|---|---|---|
| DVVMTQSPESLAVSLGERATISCKSGQSVLYESRNKNSVAWYQQKAGQPPKLLIYRASTRESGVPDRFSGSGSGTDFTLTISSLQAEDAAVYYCYQYHRLPLSFGGGTKVEIK | 0.28 0.78 0.55 | 0.54 | 4 of 9 (4.67) |
| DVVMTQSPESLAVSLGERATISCKSSQSVLYTSREKNSVAWYQQKAGQPPKLLIYWASTREQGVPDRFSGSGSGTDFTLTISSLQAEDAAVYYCQQYHRLPLSFGGGTKVEIK | 0.67 0.90 0.88 | 0.82 | 5 of 9 (4.66) |